Values quoted from earlier work in publication PMC6787468.

Legend:
[1] = target: T1, mGAT1 (GABA transporter 1, GAT1) (Mus musculus, UniProt P31648); assay: affinity selection MS, hit in three of three experiments, with competitive MS Binding Assay; pKi from earlier in-house MS Binding Assays
[2] = target: T1, mGAT1 (GABA transporter 1, GAT1); assay: affinity selection MS (specific binding […]) with competitive MS Binding Assay; pKi from earlier in-house MS Binding Assays

Row | Compound | pKi [2] [pKi] | also measured
1 | O=C(O)C1CCCN(CCC/C=C/c2ccccc2-c2ccc(Cl)cc2Cl)C1 (stereo not drawn) |  | Ki [1]: 7.15 pKi
2 | Cc1ccsc1C(=CCCN1CCC=C(C(=O)O)C1)c1sccc1C | 7.04 | 
3 | O=C(O)C1CCCN(CC#CCC(c2ccccc2)c2ccccc2)C1 (stereo not drawn) |  | pKi ([2]; tested form: HCl): 7.81 pKi
4 | Cc1ccccc1-c1ccccc1C#CCCN1CCCC(C(=O)O)C1 (stereo not drawn) | 8.13 | 
5 | O=C(O)C1=CCCN(CCO/N=C/c2ccccc2-c2ccc(F)cc2Cl)C1 |  | Ki ([1]; tested form: HCl): 7.83 pKi
6 | O=C(O)C1CCCN(CCOCCc2ccc(/N=N/c3cccc4ccccc34)cc2)C1 (stereo not drawn) | 6.50 | 

Read-outs that look alike come from different tables or passages of the source.
